Test results reported in IntAct's records for PubMed 31515488.

B1: TNFAIP3-interacting protein 1 (Homo sapiens), Q15025 (parent)
chain: MEGRGPYRIYDPGGSVPSGEASAAFERLVKENSRLKEKMQGIKMLGELLEESQMEATRLRQKAEELVKDNELLPPPSPSLGSFDPLAELTGKDSNVTASPTAPACPSDKPAPVQKPPSSGTSSEFEVVTPEEQNSPESSSHANAMALGPLPREDGNLMLHLQRLETTLSVCAEEPDHGQLFTHLGRMALEFNRLASKVHKNEQRTSILQTLCEQLRKENEALKAKLDKGLEQRDQAAERLREENLELKKLLMSNGNKEGASGRPGSPKMEGTGKKAVAGQQQASVTAGKVPEVVALGAAEKKVKMLEQQRSELLEVNKQWDQHFRSMKQQYEQKITELRQKLADLQKQVTDLEAEREQKQRDFDRKLLLAKSKIEMEETDKEQLTAEAKELRQKVKYLQDQLSPLTRQREYQEKEIQRLNKALEEALSIQTPPSSPPTAFGSPEGAGALLRKQELVTQNELLKQQVKIFEEDFQRERSDRERMNEEKEELKKQVEKLQAQVTLSNAQLKAFKDEEKAREALRQQKRKAKASGERYHVEPHPEHLCGAYPYAYPPMPAMVPHHGFEDWSQIRYPPPPMAMEHPPPLPNSRLFHLPEYTWRLPCGGVRNPNQSSQVMDPPTARPTEPESPKNDREGPQ
partner: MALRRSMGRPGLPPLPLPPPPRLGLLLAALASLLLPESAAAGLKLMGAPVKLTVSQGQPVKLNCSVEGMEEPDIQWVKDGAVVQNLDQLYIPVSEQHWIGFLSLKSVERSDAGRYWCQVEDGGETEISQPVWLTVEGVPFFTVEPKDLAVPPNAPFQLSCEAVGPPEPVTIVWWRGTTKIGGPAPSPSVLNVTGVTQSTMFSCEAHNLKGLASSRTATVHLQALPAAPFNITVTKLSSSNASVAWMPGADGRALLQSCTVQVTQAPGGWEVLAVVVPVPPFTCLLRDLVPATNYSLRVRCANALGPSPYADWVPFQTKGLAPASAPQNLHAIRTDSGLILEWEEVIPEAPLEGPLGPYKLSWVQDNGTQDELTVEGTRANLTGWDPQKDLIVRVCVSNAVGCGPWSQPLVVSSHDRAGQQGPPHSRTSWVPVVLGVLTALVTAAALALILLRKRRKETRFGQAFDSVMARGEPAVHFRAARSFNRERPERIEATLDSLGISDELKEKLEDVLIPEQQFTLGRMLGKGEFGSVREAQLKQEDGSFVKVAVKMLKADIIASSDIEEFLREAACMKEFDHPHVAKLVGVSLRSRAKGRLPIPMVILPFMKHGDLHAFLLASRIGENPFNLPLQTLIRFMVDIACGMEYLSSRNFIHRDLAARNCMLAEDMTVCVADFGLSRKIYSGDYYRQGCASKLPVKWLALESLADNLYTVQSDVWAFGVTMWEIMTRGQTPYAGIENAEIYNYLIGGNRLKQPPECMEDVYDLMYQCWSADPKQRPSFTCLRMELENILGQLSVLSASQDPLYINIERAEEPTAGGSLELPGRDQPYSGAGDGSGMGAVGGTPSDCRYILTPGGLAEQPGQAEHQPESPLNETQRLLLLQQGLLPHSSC
B2: TNFAIP3-interacting protein 1 (Homo sapiens), Q15025 (parent)
chain: B1 chain
partner: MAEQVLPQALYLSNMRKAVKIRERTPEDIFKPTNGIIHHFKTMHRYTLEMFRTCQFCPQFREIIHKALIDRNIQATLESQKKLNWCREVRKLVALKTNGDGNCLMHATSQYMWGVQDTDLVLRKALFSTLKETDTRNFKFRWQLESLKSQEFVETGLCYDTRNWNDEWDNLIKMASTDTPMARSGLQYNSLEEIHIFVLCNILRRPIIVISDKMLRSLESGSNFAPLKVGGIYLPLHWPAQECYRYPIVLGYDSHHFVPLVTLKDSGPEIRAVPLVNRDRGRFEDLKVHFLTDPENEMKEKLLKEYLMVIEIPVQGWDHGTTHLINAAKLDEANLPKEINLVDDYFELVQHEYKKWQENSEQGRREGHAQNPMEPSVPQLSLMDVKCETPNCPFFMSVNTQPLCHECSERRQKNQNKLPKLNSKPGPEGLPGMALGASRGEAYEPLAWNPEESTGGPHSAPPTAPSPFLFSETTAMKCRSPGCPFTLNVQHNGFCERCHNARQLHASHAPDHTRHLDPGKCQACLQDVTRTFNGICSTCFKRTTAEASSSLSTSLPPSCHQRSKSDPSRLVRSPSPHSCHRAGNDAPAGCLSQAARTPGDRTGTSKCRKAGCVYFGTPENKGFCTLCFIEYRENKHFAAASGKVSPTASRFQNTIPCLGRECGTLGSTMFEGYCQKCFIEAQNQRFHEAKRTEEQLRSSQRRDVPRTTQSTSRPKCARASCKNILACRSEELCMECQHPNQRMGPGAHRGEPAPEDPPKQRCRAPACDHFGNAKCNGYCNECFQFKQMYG
B3: TNFAIP3-interacting protein 1 (Homo sapiens), Q15025 (parent)
chain: B1 chain
partner: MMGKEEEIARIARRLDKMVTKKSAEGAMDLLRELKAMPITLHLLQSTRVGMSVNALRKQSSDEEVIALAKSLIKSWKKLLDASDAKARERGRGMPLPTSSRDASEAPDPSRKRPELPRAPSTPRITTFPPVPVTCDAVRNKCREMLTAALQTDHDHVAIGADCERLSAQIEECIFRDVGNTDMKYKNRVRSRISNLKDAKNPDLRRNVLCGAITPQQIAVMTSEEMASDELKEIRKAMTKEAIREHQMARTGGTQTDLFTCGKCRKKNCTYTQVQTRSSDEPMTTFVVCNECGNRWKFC
B4: Protein INCA1 (Homo sapiens), Q0VD86 (parent)
chain: MQVQDDGVNLIPFAKCSRVVSRSPPPRLPSQSLRPMPQRYGDVFWKNLNQRPTPTWLEEQHIPPMLRATGCSQLGLYPPEQLPPPEMLWRRKKRRPCLEGMQQQGLGGVPARVRAVTYHLEDLRRRQSIINELKKAQWGSSGAASEPVVLGEEGCGFPSTNEYPDLEEERATYPQEEDRFLTPGRAQLLWSPWSPLDQEEACASRQLHSLASFSTVTARRNPLHNPWGMELAASEE
partner: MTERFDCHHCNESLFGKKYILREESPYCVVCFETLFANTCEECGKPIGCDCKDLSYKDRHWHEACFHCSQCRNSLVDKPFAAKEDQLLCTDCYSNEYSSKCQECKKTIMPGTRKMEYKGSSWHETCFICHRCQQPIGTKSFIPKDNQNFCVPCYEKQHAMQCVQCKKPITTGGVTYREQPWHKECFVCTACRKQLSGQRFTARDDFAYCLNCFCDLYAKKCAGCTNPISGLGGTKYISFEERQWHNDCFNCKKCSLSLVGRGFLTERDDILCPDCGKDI

Variants of: B1
Details: with tyro3_human TYRO3, Q06418

Variant | effect of a mutation on the interaction
Q214K | with no effect
P151A | with no effect

Variants of: B2
Details: with tnap3_human TNFAIP3, P21580

Variant | effect of a mutation on the interaction
G178S | with no effect
Q214K | with no effect
K30T | with no effect
V16M | with no effect

Variants of: B3
Details: with tcea2_human TCEA2, Q15560

Variant | effect of a mutation on the interaction
K30T | with no effect
V16M | with no effect
G178S | with no effect
Q214K | with no effect

Variants of: B4
Details: with fhl2_human FHL2, Q14192

Variant | effect of a mutation on the interaction
E153D | with no effect
